## scFv variants of Ab-14 (heavy chain) against a SARS-CoV-2 spike peptide

Reference: Engelhart et al. 2022, doi:10.1038/s41597-022-01779-4. File: FLAb, binding data.

Target peptide (SARS-CoV-2 spike, HR2 region): PDVDLGDISGINAS

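Phage display of a naive human antibody library on the peptide gave the parent. The library (AAYL49) carries one to three amino acid substitutions per variant, with no insertions or deletions. AlphaSeq pools MATa yeast showing the antibodies with MATalpha yeast showing the peptide. Pairs that bind mate more often; barcode pairs of the diploids are counted by sequencing. A regression on co-assayed BCL2-family reference pairs converts the normalised counts of each replicate to an apparent Kd. There are three technical replicates.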

Each scFv is VH, a (GGGGS)3 linker, VL, as in the parent Ab-14, and differs from it in the CDRs of the heavy chain only.
VH: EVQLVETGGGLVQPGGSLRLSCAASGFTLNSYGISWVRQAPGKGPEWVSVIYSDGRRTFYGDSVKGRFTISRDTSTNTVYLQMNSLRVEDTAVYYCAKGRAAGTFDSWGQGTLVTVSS
VL: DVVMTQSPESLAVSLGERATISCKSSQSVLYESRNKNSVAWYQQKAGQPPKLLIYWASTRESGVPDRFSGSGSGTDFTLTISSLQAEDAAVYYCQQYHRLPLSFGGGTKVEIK

The parent's heavy chain CDRs are GFTLNSYGIS, VIYSDGRRTFYGDSVK, GRAAGTFDS; each variant's own CDRs replace them letter for letter. Values are log10 of the apparent Kd in nM; lower means stronger binding. The mean shown is taken over the replicates in which the pair was detected. An entry "nd" has no value in the source: the pair was not observed among the diploids in that replicate. This suggests poor binding but is not conclusive. In this assay the parent's reference entry averaged 0.65; its copy inside this library read 4.11 (one replicate of three). Nonspecific signal, from three strains lacking the peptide, appeared in 15% of pairings of library AAYL49, centred on 4.06 (5% of these signals below 2.83); values are not corrected for it. The control count says in how many pairings with the empty strains this scFv gave a signal, with their mean in brackets.

| # | CDR-H1 | CDR-H2 | CDR-H3 | replicates, log10 nM | mean log10 Kd (nM) | control signals |
|---|---|---|---|---|---|---|
| 1 | GLTLNSYGIS | VIYSDSRRTFYGDSLK | GRAAGTFDS | 5.48 / nd / nd | 5.48 | 5 of 9 (4.70) |
| 2 | GFTLNSYGIS | CIYSDGRRRFYGDSVK | GRAAGTFDS | nd / 2.73 / nd | 2.73 | 0 of 9 |
| 3 | GFDCNSYGIS | VIYSDGRRTFYGDSVK | KRAAGTFDS | nd / nd / nd | nd | 0 of 9 |
| 4 | GFTLNSYGIS | VIYSDGRRMFYGDSVK | GAAAGTFDS | 1.51 / 1.63 / 1.52 | 1.55 | 2 of 9 (3.47) |
| 5 | GFTLNSYGIS | VIYSDGTRTFYGDSVK | GRAAGTADS | 2.67 / 2.04 / 2.67 | 2.46 | 6 of 9 (3.77) |
| 6 | GFTLNSYGIT | MIYSDGRRTFYGDSSK | GRAAGTFDS | nd / 3.34 / nd | 3.34 | 0 of 9 |
| 7 | GFTLQSYGIS | VIYSDGRNTMYGDSVK | GRAAGTFDS | nd / nd / nd | nd | 1 of 9 (2.73) |
| 8 | GFTLNSYGIS | RIYSAGTRTFYGDSVK | GRAAGTFDS | nd / nd / nd | nd | 1 of 9 (3.14) |
| 9 | VFTLNSKGIS | VIYSDGRRTFYGDYVK | GRAAGTFDS | nd / nd / nd | nd | 2 of 9 (3.43) |
| 10 | GFTLNSYGIS | VIYSDDYRTFYGDSVK | GRAAGTFDS | nd / nd / 4.22 | 4.22 | 1 of 9 (3.21) |
| 11 | GFTLNSYGYS | VIYSDGRRTYYGDSVK | GKAAGTFDS | nd / nd / nd | nd | 0 of 9 |
| 12 | GFTLNSEGIS | VIYSDGLRTFYGDSVK | GRAAGTFDS | nd / 4.67 / 4.78 | 4.72 | 2 of 9 (4.76) |
| 13 | GFTLNSYGIS | VIYFDGRRTFYGCSVK | GRAAGTLDS | nd / nd / nd | nd | 1 of 9 (2.71) |
| 14 | GFTINSYGIS | VIYSDGRRTFYTDSVK | GDAAGTFDS | 0.32 / 0.55 / 0.47 | 0.45 | 2 of 9 (5.71) |
| 15 | GFTLNSYGIS | VIYSDGERTFYGDRVC | GRAAGTFDS | 3.95 / 4.43 / nd | 4.19 | 2 of 9 (4.61) |
| 16 | FFTLNSYGIS | DIYSDGRRTFYGDSVK | GRAFGTFDS | nd / nd / nd | nd | 0 of 9 |
| 17 | GFTLWSYGIS | VIYHDGRRTFYGVSVK | GRAAGTFDS | nd / nd / nd | nd | 2 of 9 (3.57) |
| 18 | GFTLNSYGIS | VIYSCGRRAKYGDSVK | GRAAGTFDS | 5.26 / nd / nd | 5.26 | 3 of 9 (4.73) |
| 19 | GFTLNSYGIS | YIYSDGRRTFYGDSVG | GRAAGTNDS | nd / nd / nd | nd | 1 of 9 (3.99) |
| 20 | GFTLNSYGIS | VIYSDGRRTFYGDSVK | GRAAGGADK | 1.88 / 1.98 / 1.96 | 1.94 | 2 of 9 (3.97) |
| 21 | GFTLNSWGIS | VIYSDGRRTAYGDSVK | GRAAGTCDS | 3.26 / nd / nd | 3.26 | 0 of 9 |
| 22 | GFTNNSYGIS | VIYSDGRRTNYGDSVK | GRAAGTFDS | 3.27 / 2.90 / 3.15 | 3.11 | 5 of 9 (4.60) |
| 23 | GFTLNSYGIS | VIYSDGRKTFYGSSVK | GRAACTFDS | nd / 2.79 / nd | 2.79 | 2 of 9 (2.89) |
| 24 | GFTLNSAGIS | VIYSDGRRTFYGDSVK | GRAAGHFDW | nd / 2.51 / nd | 2.51 | 1 of 9 (4.61) |
| 25 | GFTLNSYGIS | VIYSDGRRTFYGDSVK | GCAAGTFDD | 1.66 / 1.32 / 1.45 | 1.47 | 1 of 9 (2.78) |
| 26 | GFRLNSYGIS | VIYSDGERTFYGDSVK | GRAAGTFKS | nd / nd / nd | nd | 0 of 9 |
| 27 | GFTLNSYGIS | VIYFDGWRSFYGDSVK | GRAAGTFDS | 3.86 / nd / nd | 3.86 | 0 of 9 |
| 28 | GFTLPSCGIS | VIYSDGRRTFYGDSVK | GRFAGTFDS | 4.19 / 2.37 / 2.78 | 3.12 | 3 of 9 (3.43) |
| 29 | GFTLNSYGIS | TKYSDGRRTFYGDSVK | ARAAGTFDS | nd / nd / nd | nd | 1 of 9 (2.64) |
| 30 | GFTLNSYGIS | VIYSDGRRKFYGDSVK | MHAAGTFDS | 5.87 / nd / nd | 5.87 | 3 of 9 (3.48) |
| 31 | GFTLNSYGIA | VIISDGARTFYGDSVK | GRAAGTFDS | nd / nd / nd | nd | 1 of 9 (4.90) |
| 32 | GFTLNSYGFS | VIYSDGYRTFYGDSVK | GRAAGTFDS | nd / nd / nd | nd | 0 of 9 |
| 33 | GFTLNSYGIS | VIYSDQPRTFYGDFVK | GRAAGTFDS | nd / nd / nd | nd | 0 of 9 |

From the list, the first 4 with no signal in any replicate:

CDR-H1	CDR-H2	CDR-H3	replicates, log10 nM	mean log10 Kd (nM)	control signals
GFDCNSYGIS	VIYSDGRRTFYGDSVK	KRAAGTFDS	nd / nd / nd	nd	0 of 9
GFTLQSYGIS	VIYSDGRNTMYGDSVK	GRAAGTFDS	nd / nd / nd	nd	1 of 9 (2.73)
GFTLNSYGIS	RIYSAGTRTFYGDSVK	GRAAGTFDS	nd / nd / nd	nd	1 of 9 (3.14)
VFTLNSKGIS	VIYSDGRRTFYGDYVK	GRAAGTFDS	nd / nd / nd	nd	2 of 9 (3.43)